Test results: patent US20070249545A1, “DIHYDROFOLATE REDUCTASE INHIBITION BY EPIGALLOCATECHIN GALLATE COMPOUNDS” (priority 2004, published 2007)

Protein sequences, listed by entry. Tags and fused reporters are not part of them.
UniProt B2FPG1, entry or part of it: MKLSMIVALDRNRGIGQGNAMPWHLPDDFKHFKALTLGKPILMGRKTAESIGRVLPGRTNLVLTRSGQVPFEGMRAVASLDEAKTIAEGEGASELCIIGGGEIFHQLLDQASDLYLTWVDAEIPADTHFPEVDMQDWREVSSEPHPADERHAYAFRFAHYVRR

Target: S. maltophilia DHFR (Stenotrophomonas maltophilia, UniProt B2FPG1)

Which Ki does the source give for `CN(Cc1cnc2nc(N)nc(N)c2n1)c1ccc(C(=O)N[C@@H](CCC(=O)O)C(=O)O)cc1` [methotrexate] here?
Its Ki is 0.018 nM.

And the Ki (read-out: dissociation constant Ki, pH 8.0, fit to Eqn. 2)?
The Ki was 0.018 nM.

Where two headings read alike, the source gives them in different places.
